Source: PubChem BioAssay
CAL PDZ FP-1 = CAL PDZ (human) peptide binding inhibition; Q9HD26; purified CAL PDZ, TMR-peptide fluorescence polarization, 1 h; inhibition, % at 24.9 µM; 300,000 compounds, 0.92% hits;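 active means mean inhibition of at least 30% with at least half of replicates also reaching 30%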;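 further: 0% = DMSO neutral control and 100% = excess unlabeled competitor peptide PRC23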
CAL PDZ FP-2 = inhibitors of human CAL PDZ peptide binding; Q9HD26; purified CAL PDZ, TMR-peptide fluorescence polarization, 1 h; inhibition, % at 20 µM; 330,000 compounds, 0.02% hits;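 active means highest replicate inhibition of at least 40%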;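 further: plate controls were DMSO neutral control wells for no effect and unlabeled competitor peptide control wells for full effect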
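Test system: tagged CAL PDZ domain / Buffer or medium: sodium phosphate/NaCl buffer pH 7.4 with TCEP, IgG, Thesit / Reagent: TMR-labelled reporter peptide T*-PRC34 bound in PDZ groove / Compound dosing: single point, 20 µM / Schedule: 1 h incubation at room temperature before polarization reading / Technique: fluorescence polarization (mP) / Benchmarks: unlabelled peptide, DMSO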
PglD DTNB = inhibitors of Campylobacter jejuni PglD acetyltransferase; purified PglD enzyme, DTNB colorimetric CoA detection; inhibition, % at 12.5 µM; 360,000 compounds, 0.098% hits; in the data active means inhibition above about 16%, passing the limit was not always enough
Vif imaging = blocks HIV Vif function. HEK293T cells, Vif self-association by quenched fluorescence, imaging, 24 h. inhibition, % at 7.49 µM. 340,000 compounds, 0.35% hits; in the data active means inhibition above about 50%, passing the limit was not always enough
ARNT-TACC3 inh = disrupts binding between human ARNT and TACC3; AlphaScreen His-ARNT PAS-B/GST-TACC3 binding, luminescence; TACC3 fragment carries E629A point mutation; Q9Y6A5; 390,000 compounds, 0.66% hits; inhibition, % at 9.99 µM;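 active means mean inhibition of replicates at least 50% and at least half of replicates each reaching 50%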;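 further: 0% = complete ARNT plus TACC3 wells and 100% = ARNT alone without TACC3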
Yeast UUG start = yeast start codon fidelity modulation; AID 602363; activity score, % at 18.7 µM; S. cerevisiae UUG-firefly luciferase reporter, luminescence/redox ratio; 0.13% of 350,000 active;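 active means replicate mean at a twofold rise or more, about +100% in these data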;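 further: firefly luciferase made from a UUG start codon reports start codon fidelity; reporter light over untreated wells divided by growth signal over untreated wells; some hits fall short of that in this replicate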
AlphaScreen ctr = interferes with AlphaScreen signal, flagging false ARNT-TACC3 hits. AC50, µM (top dose mostly 68 µM), for inactives: at the top dose activity change, negative = signal decrease. shares compounds with ARNT-TACC3 inh. AID 651705. His-ARNT PASB-GST AlphaScreen artifact counter-screen, luminescence. 1,200 compounds, 50% hits;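 active means every separate test run was called active for a drop in luminescence, with AC50 within twice the top valid dose, actives reach about 71 µM in these data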
An asterisk follows results filed as active; x = no result given; [ ] = dose if it differs, or a comment. A selection: hits, their analogues and other compounds. The true share with any hit is near 1.6%.

#1 Fc1ccc(-c2ccc(CNCc3ccccn3)o2)cc1
#2 Fc1ccc(NC(=S)NCc2ccccn2)cc1
#3 C[C@@H]1CN([C@H](C)CO)C(=O)c2cccc(NC(=O)c3cnccn3)c2O[C@@H]1CN(C)CC1CC1
#4 CC(C)NC(=O)N(C)C[C@H]1OCCCC[C@H](C)Oc2ccc(NC(=O)Cc3ccccc3)cc2C(=O)N([C@H](C)CO)C[C@H]1C
#5 CC(C)NC(=O)Nc1ccc2c(c1)C(=O)N([C@H](C)CO)C[C@@H](C)[C@@H](CN(C)C(=O)Nc1ccccc1)OCCCC[C@@H](C)O2
#6 CC(C)NC(=O)Nc1ccc2c(c1)C(=O)N([C@@H](C)CO)C[C@H](C)[C@@H](CN(C)C)OCCCC[C@H](C)O2

| Assay by compound | 1 | 2 | 3 | 4 | 5 | 6 |
| --- | --- | --- | --- | --- | --- | --- |
| Yeast UUG start | -27 | -21 | -7 | x | x | x |
| CAL PDZ FP-1 | -7 | -1 | x | x | x | x |
| CAL PDZ FP-2 | -4 | -1 | x | x | x | x |
| ARNT-TACC3 inh | 61* | 4 | -5 | 106* | 66* | 109* |
| PglD DTNB | 3 | -2 | 4 | -4 | 0 | 2 |
| AlphaScreen ctr | -29% | x | x | -3%[42 µM] | -3%[38 µM] | -1%[42 µM] |
| Vif imaging | 2 | 6 | x | x | x | x |

Two compounds picked at random from the list so far:
#2 Fc1ccc(NC(=S)NCc2ccccn2)cc1
#5 CC(C)NC(=O)Nc1ccc2c(c1)C(=O)N([C@H](C)CO)C[C@@H](C)[C@@H](CN(C)C(=O)Nc1ccccc1)OCCCC[C@@H](C)O2

| Assay by compound | 2 | 5 |
| --- | --- | --- |
| Yeast UUG start | -21 | x |
| CAL PDZ FP-1 | -1 | x |
| CAL PDZ FP-2 | -1 | x |
| ARNT-TACC3 inh | 4 | 66* |
| PglD DTNB | -2 | 0 |
| AlphaScreen ctr | x | -3%[38 µM] |
| Vif imaging | 6 | x |

Next section.
#7 CC(C)NC(=O)Nc1ccc2c(c1)C(=O)N([C@H](C)CO)C[C@@H](C)[C@H](CN(C)C(=O)Nc1ccccc1)OCCCC[C@@H](C)O2
#8 CC(C)NC(=O)Nc1ccc2c(c1)C(=O)N([C@H](C)CO)C[C@@H](C)[C@H](CN(C)C)OCCCC[C@@H](C)O2
#9 C[C@@H]1CN([C@H](C)CO)C(=O)c2cc(C#CC(C)(C)O)cnc2O[C@@H]1CN(C)C(=O)CN(C)C
#10 CCOc1ccc(C2=Nn3c(nnc3-c3ccccn3)SC2)cc1
#11 CC(C)NC(=O)Nc1cccc2c1O[C@@H](CN(C)C(=O)Nc1cccc3ccccc13)[C@@H](C)CN([C@@H](C)CO)C2=O
#12 Oc1ccc(Cl)cc1CNc1cccc2cccnc12

| Assay by compound | 7 | 8 | 9 | 10 | 11 | 12 |
| --- | --- | --- | --- | --- | --- | --- |
| Yeast UUG start | x | x | 0 | -30 | -5 | 5 |
| CAL PDZ FP-1 | x | x | x | -1 | x | x |
| CAL PDZ FP-2 | x | x | x | -6 | x | 1 |
| ARNT-TACC3 inh | 12 | -7 | -1 | 63* | -1 | 65* |
| PglD DTNB | 1 | 2 | -2 | -3 | -4 | 4 |
| AlphaScreen ctr | x | x | x | -27% | x | -31% |
| Vif imaging | x | x | x | 0 | x | -7 |

#13 CCSc1nnc(NC(=O)C2CCCCC2C(=O)O)s1 (stereo not drawn)
#14 CCSc1nnc(NC(=O)C2CC2c2ccccc2)s1 (stereo not drawn)
#15 C[C@@H]1CN([C@H](C)CO)C(=O)c2cc(NS(C)(=O)=O)ccc2O[C@@H]1CN(C)Cc1ccc(C(=O)O)cc1
#16 C[C@H]1CN([C@@H](C)CO)C(=O)c2cccc(NS(=O)(=O)c3ccc(Cl)cc3)c2O[C@H]1CN(C)Cc1ccc(C(=O)O)cc1
#17 Cc1ccc(Nc2c(-c3ccccn3)nc3ccc(C)cn23)cc1
#18 Cc1ccc(Nc2c(-c3ccccn3)nc3cc(C)ccn23)cc1
#19 Cc1ccc(-n2c(-c3ccc(Br)cc3)c[n+]3c2CCc2ccc4cccnc4c2-3)cc1
#20 COCC(=O)N1C[C@H](C)[C@H](OC)CN(C)C(=O)c2cc(NC(=O)C3CCC3)ccc2OC[C@@H]1C

| Assay by compound | 13 | 14 | 15 | 16 | 17 | 18 | 19 | 20 |
| --- | --- | --- | --- | --- | --- | --- | --- | --- |
| Yeast UUG start | x | x | -1 | -6 | -37 | -31 | -11 | x |
| CAL PDZ FP-1 | 3 | -1 | x | x | -2 | -9 | -3 | x |
| CAL PDZ FP-2 | 0 | -2 | x | x | 1 | 0 | -7 | x |
| ARNT-TACC3 inh | active | x | -9 | -2 | 28 | 62* | 59* | -4 |
| PglD DTNB | x | x | 7 | -4 | -1 | 0 | -2 | 0 |
| AlphaScreen ctr | 0% | x | x | x | x | 13µM* | -11% | x |
| Vif imaging | 1 | -1 | x | x | -4 | -10 | -2 | x |
